Values of other authors as cited in publication PMC3141299 (Macromolecular bioscience, 2010).

Conditions: treated for 1 h in gastric fluid; ref 2 (Yamagata et al.)

## insulin
  insulin remaining intact / preserved after treatment in gastric fluid: 20%
